{"source": "patent US6855712B2", "about": "“Combination of benzoquinazoline antifolates and protecting agents” (SmithKline Beecham Corporation, priority 1992, dated 2005)", "tested_on": "beagle dogs", "type": "in vivo", "settings": "10 mg/kg Compound A", "procedure": "The thymidylate synthase inhibitor Compound A (8 mg/kg) was lethal when administered to beagle dogs as an iv bolus for five consecutive days. In contrast Compound A at 20 mg/kg was not lethal when given as an iv bolus 30 minutes after oral administration of folic acid at 50 mg/kg. Similarly, five consecutive days of 10 mg/kg of Compound A iv was lethal when given alone.", "note": "Like-named read-outs stand apart in the source and are kept apart here.", "data": [{"smiles": "Cc1nc2ccc3ccc(CNc4ccc5c(c4)CN([C@@H](CCC(=O)O)C(=O)O)C5=O)cc3c2c(=O)[nH]1", "note": "[Compound A, (S)-2-(5-(((1,2-Dihydro-3-methyl-1-oxobenzo[f]quinazolin-9-yl)methyl)amino)-1-oxo-2-isoindolinyl)glutaric acid]", "values": [{"measurement": "Dog tox.", "setting": "folic acid 0 mg/kg", "result": "lethal"}, {"measurement": "Dog tox.", "setting": "leucovorin 0 mg/kg", "result": "Lethal"}]}]}
